TCR activator – activates T cell receptor signaling | primary human leukocytes, anti-CD3, IL-2 HTRF, 48 h | Potency, µM (highest dose often 9.22 µM), inactives show at the highest dose activation of IL-2 secretion, most hits filed as activators | 330,000 tested, under 10 active | AID 504894; further: % of control where 0% means no effect
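Using a-CD3 beads without co-stimulation, primary human leukocytes were exposed to compounds for 48 hr. An HTRF IL-2 kit measured the cytokine, with europium-to-d2 energy transfer producing emission at 665nm upon 320nm excitation.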
RXFP1 ag – agonists of human relaxin receptor RXFP1; Q9HBX9; HEK293T-RXFP1 cAMP TR-FRET, 30 min; response scale: percent of porcine relaxin response, buffer zero; Potency, µM (series often up to 57.5 µM), without a hit: at the top dose activation, usual class: activators; 0.3% of 370,000 active; further: potency means the concentration at half of the fitted maximal effect; on the % scale 0 is the no-effect control and ±100 the full control effect; nearly all actives have a fitted effect of over 60% in size
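cAMP rise read by TR-FRET after 30 min, 37C compound exposure (up to 58 uM) in RXFP1-transfected HEK293 cells with Ro 20174 present. EC50 from Hill-equation fits, with 29 nM porcine relaxin as 100% and buffer as basal.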
IL2 activator – activates IL-2 in a cell-based reporter assay | AID 652025 | 0.065% of 360,000 active | IL-2 activation reporter assay, cell-based qHTS; stimulated with anti-CD3/CD4/CD28 beads; in transgenic mouse T cells | activation, % (series mostly up to about 46 µM); in the data active means activation above about 50%; inconclusive means mostly about 30% to 49%; further: 0% is about no effect
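Quantitative HTS in unstimulated transgenic mouse T cells, with memory T cells as non-tolerant control and PMA/ionomycin as tolerance-bypass control. Compound pretreatment lasted 60 minutes before 18 h bead stimulation; EGFP/DsRed fluorescence read.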
RXFP1 antag – RXFP1 (human) relaxin receptor antagonism; Q9HBX9; activity change, negative = inhibition, % at 57.5 µM; HEK293-RXFP1, relaxin-stimulated cAMP HTRF, 30 min; stronger effect = lower value; 0.59% of 350,000 active; AID 1259400;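 active means activity change of -60% or lower, but not beyond a set lower limit; inconclusive means change between -60% and -40%, or beyond the set limit; inactive means change above -40%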; further: on the % scale 0 is the no-effect control and ±100 the full control effect
PINK1 expr mod – PINK1 expression modulation | PINK1 immunofluorescence, high-content cytometry, 24 h | Potency, µM (top dose mostly 76.6 µM), without a hit: at the highest dose activation (PINK1 increase), usual class: activators | 0.2% of 410,000 active | AID 624263; active means well fitted activation curve with a large enough effect; inconclusive means small, poorly fitted or top-dose-only effect; cell line not stated here; further: potency means the concentration at half of the fitted maximal effect; % of control where 0% means no effect; nearly all actives have a fitted effect of over 65% in size
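PINK1 protein level read as immunofluorescence by microplate cytometer in a fixed, stained stable cell line after 24 h exposure to five compound concentrations, with CCCP as control.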
miR-21 reporter – miR-21 reporter, rising signal | AID 2288 | HeLa miR-21 FLuc reporter, luciferase, 48 h | 340,000 tested, under 10 active | Potency, µM (doses to about 38.3 µM), for inactives: at the top dose reporter change, positive = more light; active = well fitted rising curve with a large enough effect; inconclusive = small, poorly fitted or top-dose-only effect; inactive = no such curve, though single readings can be large or run the other way;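 note: % of control where 0% means no effect; miR-21 action dims this reporter so a rising signal means less miR-21 action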
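Luminescence from a firefly luciferase reporter carrying a miR-21 binding site downstream, stably expressed under a CMV promoter in HeLa cells that make miR-21 endogenously, reports miRNA modulation after 48 h compound exposure up to approximately 40uM final.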
* marks the source's active call; other numbers are inactive results; [ ] = remark or other dose. Compounds with a hit are over-represented: about 0.78% of the library has one in this group of screens. Unless noted, the call rests on the fitted dose curve; in most records, active means well fitted curve in the direction sought with a large enough effect; inconclusive means small, poorly fitted or top-dose-only effect, or another doubt; inactive means no such curve, though single readings can be large; an effect the other way counts as inactive or inconclusive.

Screening COc1cccc(/C=N/NC(=O)c2cc3c(OC)cccc3[nH]2)c1OC returned TCR activator -5%[46.1 µM], RXFP1 ag 0%, IL2 activator 0, RXFP1 antag 19, PINK1 expr mod 10% and miR-21 reporter -3%.
`COc1cccc(/C=N/NC(=O)c2cc3c(OC)cccc3[nH]2)c1O` gave TCR activator 0%[46.1 µM], RXFP1 ag 2%, IL2 activator 2, RXFP1 antag 5, PINK1 expr mod 40µM* and miR-21 reporter 22%.
For Cc1ncc(Cc2ccccc2)c(C2CCN(S(=O)(=O)C[C@]34CC[C@H](CC3=O)C4(C)C)CC2)n1 the results were PINK1 expr mod 0%.
`CC[n+]1c(C=C2C=C(C)OC(C)=C2)sc2ccccc21` gave TCR activator -2%, RXFP1 ag 6%, IL2 activator 4, RXFP1 antag -8, PINK1 expr mod 22µM* and miR-21 reporter inconclusive.
For Cc1ncc2c(c1CNC(=O)c1ccccc1F)CCN(C(=O)c1ccccc1-n1cccn1)C2 the results were PINK1 expr mod 0%.
Screening CC1=CC2C(C(O)CC3(C)C2CC(C)C32OCOC23COCO3)C2(C)C/C(=C\O)C(=O)C=C12 (stereo not given) returned TCR activator -7%, IL2 activator -6, RXFP1 antag -76* and PINK1 expr mod -7%.
Screening CC(C)Cn1c(/C=C/c2ccccc2)nc2ccccc21 returned TCR activator -5%[46.1 µM], RXFP1 ag 4%, IL2 activator -2, RXFP1 antag -66*, PINK1 expr mod 18% and miR-21 reporter -29%.
For CCCn1c(/C=C/c2cc[n+](C)cc2)nc2ccccc21 the results were TCR activator -15%, RXFP1 ag 20µM*, IL2 activator 1, RXFP1 antag 16, PINK1 expr mod 0% and miR-21 reporter 3%.
CCn1c(/C=C/c2ccccc2)nc2ccccc21 was read as RXFP1 ag 0%, IL2 activator -2, RXFP1 antag -7, PINK1 expr mod inconclusive and miR-21 reporter -26%.
COc1ccc(N2CC(O)=C(c3nc4ccccc4s3)C2=N)cc1 was read as RXFP1 ag 28%, IL2 activator 1, RXFP1 antag -7, PINK1 expr mod 11µM* and miR-21 reporter -19%.
For COc1cccc2cc(-c3nc(-c4cccs4)no3)c(=O)oc12 the results were RXFP1 ag 2%, PINK1 expr mod 1% and miR-21 reporter -59%.
COc1cccc2cc(-c3nc(-c4cccs4)cs3)c(=O)oc12 was read as TCR activator -2%, RXFP1 ag 6%, IL2 activator 76*, RXFP1 antag -11, PINK1 expr mod 12% and miR-21 reporter -46%.
For COC(=O)c1ccc(-c2cccc3c2OC(CNC(=O)/C=C/c2ccc(OC)c(OC)c2)C3)nc1 (stereo not given) the results were PINK1 expr mod 1%.
Screening O=C1NC2CCCCN2C12CCN(CCCN1c3ccccc3CCc3ccc(Cl)cc31)CC2 (stereo not given) returned RXFP1 antag -74*.
For CC(O)(COc1ccccc1)c1ccc2c(c1)CN(Cc1cccnc1)CCO2 (stereo not given) the results were PINK1 expr mod 0%.
`CCC1(C2CCN(C(=O)c3csc(C(C)=O)c3)CC2)NC(=O)N(CCc2scnc2C)C1=O` (stereo not given) gave PINK1 expr mod -1%.
Screening COC(=O)C1CCN(Cc2ccc3c(c2)CN(C(=O)c2cc4cc(F)ccc4[nH]2)CCO3)CC1 returned PINK1 expr mod 0%.
`Cc1nc(C)c(-c2csc(Nc3ccc(N)cc3)n2)s1` gave TCR activator 0%, RXFP1 ag 4%, IL2 activator -1, RXFP1 antag -2, PINK1 expr mod 5% and miR-21 reporter -17%.
`COc1ccc(Nc2nc(-c3sc(C)nc3C)cs2)cc1` gave RXFP1 ag 0%, IL2 activator 1, RXFP1 antag -61*, PINK1 expr mod 4% and miR-21 reporter 6%.
`COc1ccc(-n2c(CCNC(=O)c3ccc(-c4cccc(F)c4)cc3)nnc2SC)cc1` gave PINK1 expr mod 0%.

4 compounds already listed, arranged by count of non-hydrogen atoms, falling.
Screening O=C1NC2CCCCN2C12CCN(CCCN1c3ccccc3CCc3ccc(Cl)cc31)CC2 (stereo not given) returned RXFP1 antag -74*.
`CCC1(C2CCN(C(=O)c3csc(C(C)=O)c3)CC2)NC(=O)N(CCc2scnc2C)C1=O` (stereo not given) gave PINK1 expr mod -1%.
For COc1cccc2cc(-c3nc(-c4cccs4)no3)c(=O)oc12 the results were RXFP1 ag 2%, PINK1 expr mod 1% and miR-21 reporter -59%.
`COc1ccc(Nc2nc(-c3sc(C)nc3C)cs2)cc1` gave RXFP1 ag 0%, IL2 activator 1, RXFP1 antag -61*, PINK1 expr mod 4% and miR-21 reporter 6%.

The results go on.
`COC1=CC(=Cc2c(N)n3nc(CC(=O)N4CCCCC4)sc3nc2=O)C=C(OC)C1=O` gave TCR activator 3%, RXFP1 ag 5%, IL2 activator 85*, RXFP1 antag 2, PINK1 expr mod 0% and miR-21 reporter 2%.
For COC1=C/C(=C/c2c(N)n3nc(CC(=O)N4CCCC4)sc3nc2=O)C=CC1=O the results were TCR activator -9%, RXFP1 ag 2%, IL2 activator 6, RXFP1 antag 32, PINK1 expr mod 0% and miR-21 reporter 5%.
O=c1oc2ccccc2c(NC2CCCCC2)c1NS(=O)(=O)c1ccc(F)c(Cl)c1 was read as TCR activator 2%, RXFP1 ag 1%, IL2 activator -3, RXFP1 antag -63*, PINK1 expr mod 3% and miR-21 reporter 1%.
`Fc1ccc(Nc2nc3nonc3nc2Nc2cccc(C(F)(F)F)c2)cc1` gave RXFP1 ag 0%, RXFP1 antag -74*, PINK1 expr mod inconclusive and miR-21 reporter inconclusive.
`CCCCOC(=O)c1ccc(N=Nc2c(C)c(C#N)c(O)[nH]c2=O)cc1` gave TCR activator -5%, RXFP1 ag 6%, IL2 activator 107*, RXFP1 antag -5, PINK1 expr mod inconclusive and miR-21 reporter -21%.
For O=Cc1ccc(O)c(O)c1O the results were RXFP1 antag -5.
CC(C)c1nnc(NC(=O)CCC(=O)N2CCN(c3ccc(Cl)cc3)CC2)s1 was read as TCR activator -5%, RXFP1 ag -1%, IL2 activator -4, RXFP1 antag -67*, PINK1 expr mod 0% and miR-21 reporter 8%.
Cc1cccc(NC(=O)C(C)OC(=O)c2ccccc2NS(=O)(=O)c2cc(C)c(C)c([N+](=O)[O-])c2)c1 (stereo not given) was read as TCR activator -8%[46.1 µM], RXFP1 ag -1%, IL2 activator -3, RXFP1 antag -13, PINK1 expr mod 20µM* and miR-21 reporter -1%.
CN(C)c1ccc(C(=C2C=CC(=[N+](C)C)C=C2)c2c(O)c(S(=O)(=O)[O-])cc3cc(S(=O)(=O)O)ccc23)cc1 was read as PINK1 expr mod 2%.

Screening results from PubChem.
